Experimental data: BindingDB's records for doi:10.1021/jm00089a022 (Warner-Lambert, 1992)

Target: T1, 3-hydroxy-3-methylglutaryl-coenzyme A reductase (Homo sapiens, UniProt P04035)
T1 sequence (P04035 whole entry): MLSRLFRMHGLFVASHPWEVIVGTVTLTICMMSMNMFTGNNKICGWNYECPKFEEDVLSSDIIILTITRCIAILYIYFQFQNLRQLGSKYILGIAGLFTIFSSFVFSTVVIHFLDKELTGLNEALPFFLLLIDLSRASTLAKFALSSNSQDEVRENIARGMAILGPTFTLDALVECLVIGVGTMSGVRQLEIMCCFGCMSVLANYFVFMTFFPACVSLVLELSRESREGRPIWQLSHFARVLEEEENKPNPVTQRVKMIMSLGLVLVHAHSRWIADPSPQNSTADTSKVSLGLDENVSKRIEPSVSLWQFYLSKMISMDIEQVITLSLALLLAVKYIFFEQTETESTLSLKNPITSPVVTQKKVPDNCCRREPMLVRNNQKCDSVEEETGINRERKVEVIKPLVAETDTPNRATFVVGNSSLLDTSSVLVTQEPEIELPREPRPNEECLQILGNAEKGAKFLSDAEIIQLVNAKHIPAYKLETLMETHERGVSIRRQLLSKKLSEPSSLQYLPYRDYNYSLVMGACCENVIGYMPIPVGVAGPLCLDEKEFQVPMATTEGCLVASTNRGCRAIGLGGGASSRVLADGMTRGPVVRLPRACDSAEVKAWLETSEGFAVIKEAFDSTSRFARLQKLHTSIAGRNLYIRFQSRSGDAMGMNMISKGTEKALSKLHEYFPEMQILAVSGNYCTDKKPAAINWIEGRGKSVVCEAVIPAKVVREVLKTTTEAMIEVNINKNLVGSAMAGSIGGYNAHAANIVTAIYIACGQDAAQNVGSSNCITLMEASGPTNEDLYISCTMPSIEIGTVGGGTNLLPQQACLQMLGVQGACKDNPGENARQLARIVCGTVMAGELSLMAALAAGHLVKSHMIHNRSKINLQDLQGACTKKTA
Experiment: ChEBML_80349
Description: Tested in vitro for the inhibition of HMG-CoA reductase from partially purified microsomal preparations.

`CC[C@H](C)C(=O)O[C@H]1C[C@H](O)C=C2C=C[C@H](C)[C@H](CC[C@@H](O)C[C@@H](O)CC(=O)O)[C@H]21` [(3R,5R)-7-[(1S,2S,6S,8S,8aR)-6-hydroxy-2-methyl-8-{[(2S)-2-methylbutanoyl]oxy}-1,2,6,7,8,8a-hexahydronaphthalen-1-yl]-3,5-dihydroxyheptanoic acid] was tested, and the IC50 was 30 nM.
